{
  "source": "paper PMC10053807",
  "about": "“Natural Lipid Extracts as an Artificial Membrane for Drug Permeability Assay: In Vitro and In Silico Characterization” (Pharmaceutics, 2023)",
  "key": {"[1]": {"assay": "PAMPA permeability, liver polar lipid extract (LPLE) membrane", "conditions": "n=3, * = not detected at acceptor side, value calculated from limit of detection"}, "[2]": {"assay": "in vitro", "conditions": "bovine, PAMPA, pH 7.4"}, "[3]": {"assay": "PAMPA permeability, heart total lipid extract (HTLE) membrane", "conditions": "n=3, * = not detected at acceptor side, value calculated from limit of detection"}, "[4]": {"assay": "in vitro", "conditions": "bovine, PAMPA, pH 7.4", "remark": "listed apart in the source"}, "[5]": {"assay": "in vitro", "conditions": "bovine, PAMPA, pH 7.4", "remark": "listed apart in the source"}},
  "data": [
    {"compound": "CC1=C(CC(=O)O)c2cc(F)ccc2/C1=C\\c1ccc([S+](C)[O-])cc1", "note": "(centres unmarked) [sulindac]", "values": [
      {"measurement": "Mean Pe", "setting": "[1]", "value": "< 0,52* 10-6 cm/s"},
      {"measurement": "Papp at 4 h, 100 μM", "setting": "[2]", "value": "< 0.513", "unit": "×10⁻⁶ cm/s"},
      {"measurement": "Mean Pe", "setting": "[3]", "value": "< 0,52* 10-6 cm/s"},
      {"measurement": "Papp at 4 h, 100 μM", "setting": "[4]", "value": "< 0.437", "unit": "×10⁻⁶ cm/s"},
      {"measurement": "Papp at 4 h, 100 μM", "setting": "[5]", "value": "< 0.525", "unit": "×10⁻⁶ cm/s"}
    ]}
  ]
}
